From patent US20250195484A1, “CEREBLON LIGANDS AND USES THEREOF” (priority 2022, published 2025)

Chains of the proteins cited; added tags and fusions are not shown. Lines headed by an entry give the natural chain unless they say otherwise; changes in a name come on top.
UniProt Q96SW2: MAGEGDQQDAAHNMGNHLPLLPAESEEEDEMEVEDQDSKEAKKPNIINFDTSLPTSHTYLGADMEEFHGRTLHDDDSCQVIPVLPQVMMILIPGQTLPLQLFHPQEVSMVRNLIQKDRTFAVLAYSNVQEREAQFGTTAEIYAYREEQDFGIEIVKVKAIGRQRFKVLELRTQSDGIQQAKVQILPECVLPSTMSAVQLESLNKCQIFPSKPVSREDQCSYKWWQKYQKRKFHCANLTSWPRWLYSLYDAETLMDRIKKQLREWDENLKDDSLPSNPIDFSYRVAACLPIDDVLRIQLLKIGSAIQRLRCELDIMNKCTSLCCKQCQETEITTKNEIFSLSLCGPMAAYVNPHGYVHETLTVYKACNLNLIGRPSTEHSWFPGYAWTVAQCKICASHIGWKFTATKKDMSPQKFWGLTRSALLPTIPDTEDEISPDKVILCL

What follows are compounds tested against GST-tagged wild-type human CRBN protein (Homo sapiens, UniProt Q96SW2) (assay: biochemical).

SMILES	IC50
O=C1CC[C@H](N2Cc3c(ccc4c3NCC43CCNCC3)C2=O)C(=O)N1 [Compound B2, (S)-3-(6′-oxo-1′,2′,6′,8′-tetrahydro-7′H-spiro[piperidine-4,3′-pyrrolo[3,4-g]indol]-7′-yl)piperidine-2,6-dione]	2800 nM
O=C1CCC(N2Cc3c(ccc4c3COC43CCNCC3)C2=O)C(=O)N1 (stereo not shown) [Compound B0, 3-(6-oxo-6,8-dihydrospiro[furo[3,4-e]isoindole-3,4′-piperidin]-7(1H)-yl)piperidine-2,6-dion]	14000 nM
O=C1CCC(N2Cc3c(ccc4c3OCCC43CCNCC3)C2=O)C(=O)N1 (stereo not shown) [Compound A16, 3-(7′-oxo-2′,3′,7′,9′-tetrahydro-8′H-spiro[piperidine-4,4′-pyrano[2,3-e]isoindol]-8′-yl)piperidine-2,6-dione]	420 nM
CN1CC2(CCNCC2)c2ccc3c(c21)CN([C@H]1CCC(=O)NC1=O)C3=O [Compound B3, (S)-3-(1′-methyl-6′-oxo-1′,2′,6′,8′-tetrahydro-7′H-spiro[piperidine-4,3′-pyrrolo[3,4-g]indol]-7′-yl)piperidine-2,6-dione]	3100 nM
